The chains behind the UniProt entries cited, without tags or fusion partners. Where a name states a change or a piece, a line headed by the entry shows the natural chain unless it says otherwise.
UniProt Q13946: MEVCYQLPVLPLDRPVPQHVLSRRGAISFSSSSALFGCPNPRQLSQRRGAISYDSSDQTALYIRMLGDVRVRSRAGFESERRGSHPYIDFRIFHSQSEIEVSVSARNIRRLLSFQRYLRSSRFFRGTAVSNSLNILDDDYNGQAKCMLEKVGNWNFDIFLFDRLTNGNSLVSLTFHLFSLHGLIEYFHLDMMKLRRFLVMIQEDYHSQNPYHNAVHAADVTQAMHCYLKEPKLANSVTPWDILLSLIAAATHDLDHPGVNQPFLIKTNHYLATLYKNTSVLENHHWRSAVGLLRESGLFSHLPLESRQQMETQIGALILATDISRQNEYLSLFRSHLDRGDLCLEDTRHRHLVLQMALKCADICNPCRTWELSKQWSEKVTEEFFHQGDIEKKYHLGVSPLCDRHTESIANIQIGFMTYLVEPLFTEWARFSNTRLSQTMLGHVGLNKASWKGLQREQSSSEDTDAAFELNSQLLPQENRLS

In patent publication US7268128B2, “1,3,5-trisubstituted-5-phenyl and 5-pyridyl pyrazolopyrimidinone derivatives having PDE7 inhibiting action” (Ausbio Pharma Co., Ltd., priority 2001, dated 2007):

Target: T1, PDE7 (type VII phosphodiesterase) (Homo sapiens, UniProt Q13946)
T1 construct: endogenous in cells; host or cells: MOLT-4 (ATCC CRL-1582), soluble fraction, HiTrapQ anion-exchange fraction
Experiment: PDE7 inhibiting activity (3H-cAMP hydrolysis, active fraction from MOLT-4 cells)
Assay type: biochemical
Details: PDE7 fraction from MOLT-4 cells, 0.064 μM cAMP, 10 μM rolipram present, 2 hours at 25° C.; read-out: IC50 values for phosphodiesterase inhibiting activities (PDE7)
Description: To evaluate the compounds of the present invention for the ability to suppress PDE7 (type VII phosphodiesterase), the method of Biochemical Pharmacol. 48(6), 1219-1223 (1994) was partially modified to perform the following assay:
1) PDE7 (type VII phosphodiesterase) active fraction was obtained. That is, human acute lymphoblastoid lymphoma T cell strain MOLT-4 (purchasable from ATCC under ATCC No. CRL-1582) was cultured in RPMI1640 medium containing 10% fetal bovine serum to obtain 5×10^8 MOLT4 cells. The cells were harvested by centrifugation, and suspended in 10 ml of buffer A (25 mM tris-HCl, 5 mM 2-mercaptoethanol, 2 mM benzamidine, 2 mM EDTA, 0.1 mM 4-(2-aminoethyl)benzenesulfonyl hydrochloride, pH 7=7.5). The cells were homogenized in a Polytoron homogenizer, and centrifuged (4° C., 25,000 G, 10 min). The supernatant was further ultracentrifuged (4° C., 100,000 G, 60 min), and the resulting supernatant was filtered through a 0.2 μm filter to obtain a soluble fraction. […]
3) The test compounds at desired concentrations were each reacted for 2 hours at 25° C. in a reactant mixture containing 20 mM tris-HCl (pH 7.5), 1 mM MgCl2, 100 μM EDTA, 330 μg/ml bovine serum albumin, 4 μg/ml 5′-nucleotidase, 0.1 μCi^3H-cAMP (0.064 μM cAMP), 10 μM rolipram, and the type VII phosphodiesterase stored solution. […] Then, the resulting supernatant was measure for radioactivity. […]

IC50: ≤ 1000 nM
Structure (SMILES): COc1cc(N)ccc1-c1nc2c(C)nn(C3CCCCC3)c2c(=O)[nH]1 [Example 9, 5-(4-Amino-2-methoxyphenyl)-1-cyclohexyl-3-methyl-1,6-dihydro-7H-pyrazolo[4,3-d]pyrimidin-7-one]
